Screens deposited in PubChem by National Center for Advancing Translational Sciences (NCATS).
miR-21 reporter: miR-21 reporter, rising signal. 340,000 tested, under 10 active. Potency, µM (highest dose often 38.3 µM), for the others: at the highest dose reporter change, positive = more light. HeLa miR-21 FLuc reporter, luciferase, 48 h. AID 2288; active = well fitted rising curve with a large enough effect; inconclusive = small, poorly fitted or top-dose-only effect; inactive = no such curve, though single readings can be large or run the other way;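 further: % of control where 0% means no effect; miR-21 action dims this reporter so a rising signal means less miR-21 action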
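HeLa miR-21-FLuc reporter line, endogenous miR-21; 2000 cells/well in DMEM/10% FBS; compound titration up to ~40uM final, 48 h, 37 degree Celsius; luciferase detection reagent, 15 min lysis, CCD luminescence.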
uPA surface inh: cell surface uPA generation inhibition; cell surface uPA generation assay, qHTS; 0.31% of 330,000 active; Potency, µM (doses to about 38.3 µM), for inactives: at the highest dose activity change, negative = inhibition, actives largely listed as inhibitors; active = well fitted inhibition curve with a large enough effect; inconclusive = small, poorly fitted or top-dose-only effect; inactive = no such curve, though single readings can be large or run the other way; tested in mouse RAW 264.7 cells; note: potency is the fitted concentration of half-maximal effect; % is set by controls: 0 for no effect and ±100 for the full control effect; nearly all actives have a fitted effect of over 55% in size
DT40 TDP1 no CPT: qHTS for Inhibitors of human tyrosyl-DNA phosphodiesterase 1 (TDP1): qHTS in cells in absence of CPT | DT40 Tdp1-/- hTDP1 cells, no CPT, ATP luminescence, 48 h | Potency, µM (highest dose often 46.2 µM), for the others: at the highest dose activity change, negative = growth inhibition, most hits filed as inhibitors | 15% of 420,000 active; note: potency is the fitted concentration of half-maximal effect; % is set by controls: 0 for no effect and ±100 for the full control effect; nearly all actives have a fitted effect of over 55% in size
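Luminescent ATP content (CellTiter-Glo) served as the growth readout. Knockout chicken DT40 cells expressing human TDP1 were exposed to compounds without camptothecin for a minimum 48 hr at 37 °C.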
TDP1 block: inhibitors of human tyrosyl-DNA phosphodiesterase TDP1. Q9NUW8. recombinant TDP1, AlphaScreen DNA substrate cleavage. Potency, µM (titrated, usually from 130 µM), for inactives: top-dose activity change, negative = inhibition, usual class: inhibitors. 0.28% of 350,000 active; note: potency is the fitted concentration of half-maximal effect; % is set by controls: 0 for no effect and ±100 for the full control effect; nearly all actives have a fitted effect of over 40% in size
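Enzyme-compound mixtures sat 15 min at room temperature, followed by a 5 min reaction with 15 nM final substrate and 10 min with AlphaScreen beads. Recombinant human Tdp1 was used at 1 nM final.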
DT40 TDP1 CPT: DT40-hTDP1 cell growth loss with CPT. chicken DT40 Tdp1-/-;hTDP1 cells + 20 nM CPT, ATP luminescence, 48 h. Potency, µM (highest dose often 46.2 µM), for inactives: at the highest dose activity change, negative = growth inhibition, usual class: inhibitors. 12% of 420,000 active; note: potency is the fitted concentration of half-maximal effect; % is set by controls: 0 for no effect and ±100 for the full control effect; nearly all actives have a fitted effect of over 55% in size
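Cell growth measured by CellTiter-Glo luminescence after a minimum 48 h, 37 C compound exposure with 20 nM CPT in Tdp1-knockout DT40 cells stably expressing hTDP1, seeded 400/well; qHTS titration format.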
* = called active by the depositor; u = inconclusive; x = no result given. An excerpt weighted towards active compounds, which were near 16% of everything screened. Unless noted, calls come from the whole dose curve; as a rule, active = well fitted curve in the direction sought with a large enough effect; inconclusive = small, poorly fitted or top-dose-only effect, or another doubt; inactive = no such curve, though single readings can be large; an effect the other way counts as inactive or inconclusive.

1. CC(C)NC(=O)c1ccc(COc2ccc(C(C)(C)C)cc2)o1
2. COC(=O)c1ccc(COc2ccc(Cl)cc2)o1
3. NNC(=O)c1ccc(COc2cccc3ccccc23)o1
4. CC(C)NC(=O)c1ccc(COc2cccc3ccccc23)o1
5. COc1ccc(CCNC(=O)c2ccc(COc3ccccc3OC)o2)cc1
6. CCOc1ccc(OCc2ccc(C(=O)NC(C)(C)C)o2)cc1
7. CCOc1ccc(OCc2ccc(C(=O)NN)o2)cc1
8. CC1(C)CC(=O)C=C(c2n[nH]nc2-c2ccc(F)c(F)c2)C1
screen / no.,1,2,3,4,5,6,7,8
miR-21 reporter,2%,-26%,3%,x,-7%,-6%,-43%,x
uPA surface inh,-13%,6%,-2%,x,7%,-6%,-7%,x
DT40 TDP1 no CPT,13µM*,-19%,u,18µM*,12µM*,u,-27%,-27%
TDP1 block,x,x,7%,x,x,6%,1%,x
DT40 TDP1 CPT,u,0%,u,u,-19%,7.3µM*,-5%,-13%

9. O=C(CSc1nc2nccnc2c(=O)n1Cc1cccs1)Nc1ccccc1
10. COc1ccccc1C#CC1=CC(=O)C[C@H](c2ccc(F)cc2)C1
11. COc1ccc(C2=CC(=O)C[C@H](c3ccc(F)cc3)C2)c(F)c1F
12. O=C1C=C(C#Cc2ccccc2)C[C@@H](c2ccc(F)cc2)C1
13. c1ccc2c(CN3CCOCC3)csc2c1
14. CC1(Oc2ccccc2-c2ccno2)CCN(Cc2csc3ccccc23)C1 (configuration not stated)
15. C=CCC(NCc1ccccc1)c1ccc(Cl)cc1 (configuration not stated)
16. C=CCC(NCc1ccccc1)c1ccc(C)o1 (configuration not stated)
screen / no.,9,10,11,12,13,14,15,16
miR-21 reporter,1%,x,x,x,-5%,x,4%,x
uPA surface inh,0%,x,-7%,x,2%,x,5%,1%
DT40 TDP1 no CPT,1%,16µM*,u,4.6µM*,-1%,u,13µM*,u
TDP1 block,5%,x,-3%,x,4%,x,1%,x
DT40 TDP1 CPT,-34%,15µM*,u,4.6µM*,-3%,18µM*,u,u

17. O=C(NCCCN1CCCC1)c1cc2c(Cl)nc3ccccc3c2s1
18. O=C(NCCCN1CCN(c2ccccc2F)CC1)c1cc2c(Cl)nc3ccccc3c2s1
19. CN1C[C@@H]2[C@@H]3C(=O)N(Cc4ccccc4)C(=O)[C@@H]3[C@](C)(C1=O)N2C(=O)c1ccc(C(C)(C)C)cc1
20. O=C(O)c1cc(O)ccc1N=Nc1ccccc1
21. Oc1ccc(N=Nc2ccccc2)cc1
22. O=C(O)c1ccccc1N=Nc1ccc(O)cc1
23. Cc1ccc(OCCCCNC2CCCC(C)C2C)c(C)c1 (configuration not stated)
24. Cc1c(NC(=O)CSc2nnc(Nc3ccccc3)s2)c(=O)n(-c2ccccc2)n1C
screen / no.,17,18,19,20,21,22,23,24
miR-21 reporter,0%,-12%,x,4%,-46%,x,23%,-3%
uPA surface inh,-9%,x,-2%,-11%,14%,9%,-8%,4%
DT40 TDP1 no CPT,12µM*,15µM*,-7%,16µM*,u,15µM*,7.3µM*,-25%
TDP1 block,-7%,2%,x,x,x,x,-8%,3%
DT40 TDP1 CPT,15µM*,16µM*,u,u,u,26µM*,8.2µM*,-13%

25. CC(C)(C)C1CCSC2=NCCC[C@]2(c2ccccc2)C1 (some centres not stated)
26. O=C1N2CCCCC1(c1ccccc1)CCCC2
27. CCCOc1ccc(Cc2nn[nH]n2)cc1
28. COc1ccccc1NC(=O)Cn1c(=O)n(CCc2ccccc2)c(=O)c2c3c(sc21)CN(C(C)=O)CC3
29. CCN(CC)CCn1c(=O)n(-c2ccc(Cl)cc2)c(=O)c2c3c(sc21)CN(C)CC3
30. CCOC(=O)N1CCc2c(sc3c2c(=O)n(CCc2ccccc2)c(=O)n3CC(=O)Nc2ccc(C)cc2)C1
31. CC(=O)N1CCc2c(sc3c2c(=O)n(CCc2ccccc2)c(=O)n3CC(=O)Nc2ccccc2F)C1
screen / no.,25,26,27,28,29,30,31
miR-21 reporter,x,x,0%,16%,-22%,-1%,6%
uPA surface inh,x,x,3%,x,7%,x,x
DT40 TDP1 no CPT,18µM*,u,-5%,16µM*,21µM*,7.3µM*,u
TDP1 block,x,x,0%,-2%,x,1%,7%
DT40 TDP1 CPT,u,-21%,-6%,16µM*,29µM*,9.2µM*,u
